Source: PubChem BioAssay (NCI)
The list shows a part of the results, in another mix than the full data. Some structures have more than one record in an assay (separate samples or runs), and their calls can disagree. Activity calls are given as the source filed them. No stated cut-off is given here; in the data, active means growth inhibition above about 70%; inactive means the rest.

Tests used:
[1] = NCI Yeast Anticancer Drug Screen. Data for the rad50 strain (AID 155);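 further: 0% = growth of vehicle-only cultures of the same strain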; details: S. cerevisiae rad50 strain growth inhibition, active compounds read high
[2] = NCI Yeast Anticancer Drug Screen. Data for the mec2-1 strain (AID 157); details: S. cerevisiae mec2-1 strain, active compounds read high
[3] = NCI Yeast Anticancer Drug Screen. Data for the sgs1 mgt1 strain (AID 161);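 further: 0% = growth of cultures given vehicle only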; details: S. cerevisiae sgs1 mgt1 strain, active compounds read high
[4] = NCI Yeast Anticancer Drug Screen. Data for the cln2 rad14 strain (AID 165);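 further: 0% = growth equal to vehicle treated cultures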; details: S. cerevisiae cln2 rad14 strain, active compounds read high
[5] = NCI Yeast Anticancer Drug Screen. Data for the bub3 strain (AID 167); details: S. cerevisiae bub3 mutant strain, active compounds read high
[6] = NCI Yeast Anticancer Drug Screen. Data for the mlh1 rad18 strain (AID 175); details: S. cerevisiae mlh1 rad18 strain growth inhibition, active compounds read high
[7] = at 5.0 µM (retest, dose inferred, filed as 0.5)
[8] = at 50.0 µM (retest, dose inferred, filed as 5.0)

Measured: growth inhibition

Cn1cnc([N+](=O)[O-])c1C[N+](C)(CCCl)CCCl
inactive: [1]; at 1.2 µM -10% | [1]; at 3.7 µM 18% | [1]; [7] 21% | [1]; at 11.0 µM 56% | [2]; at 1.2 µM -25% | [2]; at 3.7 µM -5% | [2]; [7] 3% | [2]; at 11.0 µM 13% | [2]; at 33.0 µM 63% | [3]; [7] 44% | [4]; [7] 8% | [4]; at 50.0 µM 60.4% | [5]; at 1.2 µM -29% | [5]; at 3.7 µM -28% | [5]; [7] 3% | [5]; at 11.0 µM -19% | [5]; at 33.0 µM 11% | [5]; [8] 56% | [5]; at 50.0 µM 7.55% | [5]; at 100.0 µM 61% | [6]; [7] 53%
active: [1]; at 33.0 µM 85% | [1]; [8] 82% | [1]; at 50.0 µM 76.8% | [1]; at 100.0 µM 92% | [2]; [8] 79% | [2]; at 50.0 µM 70.8% | [2]; at 100.0 µM 86% | [3]; [8] 71% | [3]; at 50.0 µM 70.2% | [4]; [8] 77% | [6]; [8] 92% | [6]; at 50.0 µM 77.5%

CCCOP(O)OCCC
inactive: [1]; at 50.0 µM 6.6% | [2]; at 50.0 µM 2.85% | [3]; at 50.0 µM 6.9% | [4]; at 50.0 µM -13.3% | [5]; at 50.0 µM 5.55% | [6]; at 50.0 µM -26.4%

ClCCN1CCCCC1CCl (stereo unspecified)
active: [1]; at 33.0 µM 84% | [1]; [8] 88% | [1]; at 50.0 µM 73.7% | [1]; at 100.0 µM 95% | [2]; at 100.0 µM 95% | [4]; [8] 86% | [6]; [8] 92% | [6]; at 50.0 µM 77.1%
inactive: [1]; at 1.2 µM 1% | [1]; at 3.7 µM 4% | [1]; [7] 6% | [1]; at 11.0 µM 30% | [2]; at 1.2 µM -1% | [2]; at 3.7 µM 2% | [2]; [7] 8% | [2]; at 11.0 µM 9% | [2]; at 33.0 µM 46% | [2]; [8] 69% | [2]; at 50.0 µM 33.6% | [3]; [7] -4% | [3]; [8] 56% | [3]; at 50.0 µM 13.6% | [4]; [7] 4% | [4]; at 50.0 µM 36.9% | [5]; at 1.2 µM 0% | [5]; at 3.7 µM -1% | [5]; [7] -1% | [5]; at 11.0 µM -1% | [5]; at 33.0 µM -1% | [5]; [8] 15% | [5]; at 50.0 µM -19.4% | [5]; at 100.0 µM 34% | [6]; [7] 9%

CN(CCCl)CC(Cl)c1cccc(C(F)(F)F)c1 (stereo unspecified)
inactive: [1]; at 50.0 µM -20% | [2]; at 50.0 µM 0.75% | [3]; at 50.0 µM 9.5% | [4]; at 50.0 µM -26.2% | [5]; at 50.0 µM -3.05% | [6]; at 50.0 µM 12.1%

ClCCN1CCC(C2CCN(CCCl)CC2)CC1
inactive: [1]; at 50.0 µM -24.1% | [2]; at 50.0 µM -9.35% | [3]; at 50.0 µM -5.15% | [4]; at 50.0 µM 9.7% | [5]; at 50.0 µM -10.2% | [6]; at 50.0 µM -58.3%

[C-]#N.[C-]#N.[Ca+2]
inactive: [1]; at 50.0 µM 12.5% | [2]; at 50.0 µM 2.6% | [3]; at 50.0 µM 1.1% | [4]; at 50.0 µM 5.7% | [5]; at 50.0 µM 8.9% | [6]; at 50.0 µM -3.25%

CC(C)NCCCl
inactive: [1]; at 50.0 µM 20.6% | [2]; at 50.0 µM -6.95% | [3]; at 50.0 µM 3.55% | [4]; at 50.0 µM 9.8% | [5]; at 50.0 µM 7.3% | [6]; at 50.0 µM 11.8%

COc1ccc(N(CCCl)CCCl)cc1
inactive: [1]; at 50.0 µM 1.7% | [2]; at 50.0 µM 0.7% | [3]; at 50.0 µM -13.4% | [4]; at 50.0 µM -9% | [5]; at 50.0 µM -21.1% | [6]; at 50.0 µM -16.2%

CCCCC1(N(CCCl)CCCl)C(=O)NC(=O)NC1=O
inactive: [1]; at 50.0 µM 10.7% | [2]; at 50.0 µM 6.2% | [3]; at 50.0 µM 6.3% | [4]; at 50.0 µM -17.5% | [5]; at 50.0 µM 2.9% | [6]; at 50.0 µM 18.3%

O=C(c1ccc(Br)cc1)C(Br)Br
active: [1]; [8] 91% | [1]; at 50.0 µM 91.8% | [2]; [8] 97% | [2]; at 50.0 µM 94% | [3]; [7] 99% | [3]; [8] 99% | [3]; at 50.0 µM 94.3% | [4]; [7] 74% | [4]; [8] 100% | [4]; at 50.0 µM 93.8% | [5]; [7] 99% | [5]; [8] 99% | [5]; at 50.0 µM 93.2% | [6]; [8] 98% | [6]; at 50.0 µM 92.3%
inactive: [1]; [7] 40% | [2]; [7] 51% | [6]; [7] 38%

CCC(=O)N(c1ccccc1)C1CCNCC1
inactive: [1]; at 50.0 µM -27.5% | [2]; at 50.0 µM -44% | [3]; at 50.0 µM -19.9% | [4]; at 50.0 µM -1.05% | [5]; at 50.0 µM -7.2% | [6]; at 50.0 µM -27.8%

NC1CCCCC1.NP(=O)(O)N(CCCl)CCCl
active: [1]; at 50.0 µM 75%
inactive: [1]; [7] 2% | [1]; [8] 16% | [2]; [7] 10% | [2]; [8] 21% | [2]; at 50.0 µM -13.2% | [3]; [7] -7% | [3]; [8] 14% | [3]; at 50.0 µM 43.3% | [4]; [7] -20% | [4]; [8] -9% | [4]; at 50.0 µM 15.9% | [5]; [7] 8% | [5]; [8] -1% | [5]; at 50.0 µM 47.2% | [6]; [7] 2% | [6]; [8] 14% | [6]; at 50.0 µM 7.75%

CCNC(=O)Cc1ccc(N(CCCl)CCCl)cc1
inactive: [1]; at 50.0 µM -6.25% | [2]; at 50.0 µM -7.65% | [3]; at 50.0 µM -5.9% | [4]; at 50.0 µM 3.65% | [5]; at 50.0 µM 1.45% | [6]; at 50.0 µM 5.35%
